Source: ChEMBL document CHEMBL1128165, “Quinuclidine-based NK1 antagonists, the role of the benzhydryl” (Bioorg Med Chem Lett, 1995)

Chains of the proteins cited; added tags and fusions are not shown.
UniProt P25103, whole entry H197A: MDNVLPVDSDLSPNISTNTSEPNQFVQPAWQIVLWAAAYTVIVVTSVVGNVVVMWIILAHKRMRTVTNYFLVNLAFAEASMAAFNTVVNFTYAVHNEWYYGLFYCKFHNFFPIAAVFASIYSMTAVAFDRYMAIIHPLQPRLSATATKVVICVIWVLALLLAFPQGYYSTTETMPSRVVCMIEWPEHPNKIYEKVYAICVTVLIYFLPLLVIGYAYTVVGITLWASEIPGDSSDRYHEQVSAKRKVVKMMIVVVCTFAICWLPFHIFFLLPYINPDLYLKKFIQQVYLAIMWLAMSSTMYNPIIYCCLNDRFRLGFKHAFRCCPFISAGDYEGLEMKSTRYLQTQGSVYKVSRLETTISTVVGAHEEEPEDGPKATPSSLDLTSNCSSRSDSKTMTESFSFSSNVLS
UniProt P25103, whole entry: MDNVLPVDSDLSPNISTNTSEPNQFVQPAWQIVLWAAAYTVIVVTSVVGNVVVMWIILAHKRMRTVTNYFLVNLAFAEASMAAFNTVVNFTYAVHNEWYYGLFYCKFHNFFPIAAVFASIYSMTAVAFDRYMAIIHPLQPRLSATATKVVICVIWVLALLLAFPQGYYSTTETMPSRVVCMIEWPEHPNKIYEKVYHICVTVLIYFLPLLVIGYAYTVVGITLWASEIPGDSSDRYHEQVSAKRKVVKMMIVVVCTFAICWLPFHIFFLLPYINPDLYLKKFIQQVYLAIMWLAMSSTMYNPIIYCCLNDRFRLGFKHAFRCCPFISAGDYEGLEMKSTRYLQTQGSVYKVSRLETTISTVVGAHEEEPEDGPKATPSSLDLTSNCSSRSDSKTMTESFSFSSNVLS

How the values were obtained:
Substance-P receptor [1] = molecular target: Substance-P receptor (Homo sapiens, UniProt P25103, H197A); assay: Binding affinity towards human mutant NK-1 receptor in which His-197 has been replaced by alanine (H197A)
Substance-P receptor [2] = molecular target: Substance-P receptor (Homo sapiens, UniProt P25103); assay: Binding affinity towards wild type human Wild-type tachykinin receptor 1 expressed in Chinese hamster ovary cells; assay type: cell-based

Row | SMILES | IC50 (Substance-P receptor [1]) | IC50 (Substance-P receptor [2])
1 | Cc1cc(C)cc(COC2/C(=C/c3ccccc3)N3CCC2CC3)c1 (centres undefined) | 7.5 µM | 8.2 µM
2 | Cc1cc(C)cc(COC2/C(=C\c3ccccc3)N3CCC2CC3)c1 (centres undefined) | 0.615 µM | 0.129 µM
